For one compound, Ki results are on record in ChEMBL document CHEMBL1133485, “3alpha-(4-Substituted phenyl)nortropane-2beta-carboxylic acid methyl esters show selective binding at the norepinephrine transporter” (Bioorg Med Chem Lett, 2000).

Sequences of proteins named here, by UniProt entry; tags and fusion partners are left off.
UniProt Q9WTR4, whole entry: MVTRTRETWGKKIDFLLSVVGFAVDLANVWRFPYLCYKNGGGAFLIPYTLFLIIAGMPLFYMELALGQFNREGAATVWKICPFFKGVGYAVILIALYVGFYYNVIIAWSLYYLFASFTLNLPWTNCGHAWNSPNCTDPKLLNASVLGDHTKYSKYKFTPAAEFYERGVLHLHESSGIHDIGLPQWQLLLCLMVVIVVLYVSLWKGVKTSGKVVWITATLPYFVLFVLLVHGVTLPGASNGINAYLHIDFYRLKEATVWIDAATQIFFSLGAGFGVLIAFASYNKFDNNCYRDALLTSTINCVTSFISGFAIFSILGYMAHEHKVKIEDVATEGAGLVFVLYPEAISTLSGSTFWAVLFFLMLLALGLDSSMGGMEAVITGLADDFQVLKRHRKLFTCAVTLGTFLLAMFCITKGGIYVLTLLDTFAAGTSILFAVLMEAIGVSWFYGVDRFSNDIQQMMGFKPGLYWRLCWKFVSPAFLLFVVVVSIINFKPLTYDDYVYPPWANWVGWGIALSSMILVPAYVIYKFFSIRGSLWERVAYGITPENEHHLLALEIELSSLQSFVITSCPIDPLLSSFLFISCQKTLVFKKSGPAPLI

For this assay, the target named is Norepinephrine transporter (Rattus norvegicus, UniProt Q9WTR4). The experiment in a line: Inhibition of 0.5 nM [3H]nisoxetine binding to Norepinephrine transporter.

Broadly, the Ki is the dissociation constant of the complex between target and ligand, obtained from inhibition or displacement. A high value points to weaker binding.

For `COC(=O)[C@@H]1C2CC[C@@H](C[C@@H]1OC(=O)c1ccccc1)N2C` (single isomer, unassigned) [COCAINE], the Ki is 1900 nM.
